Data published in publication PMC7872424, “Mining Natural Products for Macrocycles to Drug Difficult Targets” (Journal of Medicinal Chemistry, 2020).

Experiments:
[1] = Aqueous solubility; type: physicochemical
[2] = Clearance by human liver microsomes; type: in vitro ADME

- aqueous solubility (in words) [1]: high
- in vitro microsomal clearance (in words) [2]: medium
Structure (SMILES): CC(=O)N1CCC[C@H]1C(=O)N[C@@H]1COC(=O)c2ccccc2CSC[C@H](C(=O)N(C)C)NC1=O [Compound 14, (4S,7R)-7-((S)-1-Acetylpyrrolidine-2-carboxamido)-N,N-dimethyl-6,10-dioxo-1,3,4,5,6,7,8,10-octahydrobenzo[j][1]oxa[8]thia[5]azacyclododecine-4-carboxamide]
